Test system: HIV-1 AD8 strain
Assay: Antiviral activity test using the TZM-bl cell luciferase system

C[C@@H]1CCO[C@H]2Cn3cc(C(=O)NCc4ccc(F)cc4F)c(=O)c(O)c3C(=O)N12 [DTG, Dolutegravir]
SI value (CC50/EC50): > 31,250.00
